Reference: patent US9132140B2, “Boronic acid derivatives and therapeutic uses thereof” (Rempex Pharmaceuticals, Inc., priority 2013, dated 2015)
Like-named read-outs stand apart in the source and are kept apart here.

Protein sequences, listed by entry. Tags and fused reporters are not part of them. Residues count along the entry.
UniProt C7C422, 29-270, looked up, species assumed: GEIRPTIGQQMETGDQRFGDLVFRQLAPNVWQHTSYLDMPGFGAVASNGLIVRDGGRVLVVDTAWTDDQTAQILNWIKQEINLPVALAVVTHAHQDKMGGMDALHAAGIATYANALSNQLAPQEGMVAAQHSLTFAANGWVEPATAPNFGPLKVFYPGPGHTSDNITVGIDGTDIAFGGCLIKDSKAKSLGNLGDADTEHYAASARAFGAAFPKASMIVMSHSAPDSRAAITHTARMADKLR

Columns and labels:
NDM-1 = NDM-1 (Klebsiella pneumoniae, UniProt C7C422); assay type: biochemical
VIM-1 = molecular target: T1, VIM-1 (Pseudomonas aeruginosa, UniProt A0A0F7KYQ8); assay type: biochemical
T1 construct: made in house; host or cells: strain ECM6711 carrying plasmid pUCP24-VIM-1 (probably E. coli, inferred); unpurified culture supernatant

EDTA
Ki (NDM-1; substrate biapenem 100 uM, read-out: Ki, μM Biapenem): 0.01 to 0.1 µM | Ki (NDM-1; substrate imipenem 100 uM, read-out: Ki, μM Imipenem): 0.01 to 0.1 µM | Ki (NDM-1; substrate meropenem, read-out: Ki, μM Meropenem): 0.01 to 0.1 µM | Ki (NDM-1; substrate tebipenem 100 uM, read-out: Ki, μM Tebipenem): 0.01 to 0.1 µM | IC50 (VIM-1): < 1000 nM
